Data from paper PMC7504417 (International Journal of Molecular Sciences, 2020).

Sequences of proteins named here, by UniProt entry; tags and fusion partners are left off. A line that says so, or that is headed by a name, gives the form on record, which may keep a tag or linker.
UniProt P35372, with tags, fused parts or gaps: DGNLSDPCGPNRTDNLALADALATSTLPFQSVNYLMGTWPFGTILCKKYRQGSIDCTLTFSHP

Tests used:
[1] = biological target: Opioid Receptor (mu opioid receptor peptides) (Homo sapiens, UniProt P35372); test: Overall pattern of binding: Opioid Receptor peptides
[2] = biological target: dopamine 1 receptor peptide D1DR 96–98 FCN (Homo sapiens, UniProt P21728); test: biochemical
[3] = biological target: T1, mu opioid receptor peptide Mu OPR 211–226 (Homo sapiens, UniProt P35372); test: biochemical; conditions: read-out: Kd (µM) Mu OPR 211–226, lower-affinity binding
T1 construct: Mu OPR 211–226; purchased RS Synthesis (Louisville, KY, USA); host or cells: chemical synthesis

[4] = biological target: mu opioid receptor peptide Mu OPR 132–143 (Homo sapiens, UniProt P35372)
[5] = biological target: histamine 1 receptor peptide HIHR 177–183 RDKCETD (Homo sapiens, UniProt P35367, E177R); test: biochemical
[6] = biological target: T2, beta 2 adrenergic receptor peptide B2AR 183–185 NCY (Homo sapiens, UniProt P07550); test: biochemical; format: binding
T2 construct: B2AR 183–185 NCY; purchased RS Synthesis (Louisville, KY, USA); host or cells: chemical synthesis

[7] = biological target: T3, beta 2 adrenergic receptor peptide B2AR 105–108 WCEF (Homo sapiens, UniProt P07550); test: biochemical; format: binding
T3 construct: B2AR 105–108 WCEF; purchased RS Synthesis (Louisville, KY, USA); host or cells: chemical synthesis

`CNC[C@H](O)c1ccc(O)c(O)c1` [Epinephrine, epinephrine HCl] showed a pKd [1] of 5.30 to 6.00, a pKd [2] of 4.40 and a Kd [3] of 45 µM.

For `CSCC[C@H](NC(=O)[C@H](Cc1ccccc1)NC(=O)CNC(=O)CNC(=O)[C@@H](N)Cc1ccc(O)cc1)C(=O)O` [Met-Enkephalin, methionine-enkephalin], the “binding to muOPR 132–143, in words” value [4] was “bound”.

`CN1CC[C@]23c4c5ccc(O)c4O[C@H]2[C@@H](O)C=C[C@H]3[C@H]1C5` [Morphine, morphine sulfate] showed a pKd [5] of 4.52, a pKd [6] of under 3.00 and a pKd [7] of 4.52.

Compound `NCCc1c[nH]c2ccc(O)cc12` [Serotonin, serotonin] has a pKd [2] of 4.52.

pKd: −log10 of the molar value. Where a name gives a salt, the structure may show the parent alone.
